The data set in a line: physchem. The conditions noted are these: thermodynamic from solid.

≈ marks a conversion by molar mass, not a printed value.

One may read the solubility as the dissolved amount per volume that the medium holds. A lower solubility goes with a poorly soluble substance. For `Cc1nc2n(c(=O)c1CCN1CCC(c3noc4cc(F)ccc34)CC1)CCCC2` [Risperidone], the solubility reads like this: (pH 1.06, simulated gastric fluid) 9940 µg/mL (≈ 24.2 mM); (pH 3, aqueous buffer) 22800 µg/mL (≈ 55.5 mM); (pH 4.65, aqueous buffer) 40800 µg/mL (≈ 99.3 mM); (pH 6.5, aqueous buffer) 1390 µg/mL (≈ 3.39 mM); (pH 8, aqueous buffer) 190 µg/mL (≈ 0.463 mM).

The values above are taken from US11576859B2, “Gastric residence systems for sustained release of therapeutic agents and methods of use thereof” (Lyndra Therapeutics, Inc., priority 2015, dated 2023).
